Data on one molecule can be found in US20090030015A1, “NOVEL MULTI-CYCLIC COMPOUNDS” (REVOTAR BIOPHARMACEUTICALS AG, priority 2005, published 2009).

Assay [1] deals with T1, human E-Selectin-IgG-chimera (Homo sapiens, UniProt P16581).
T1 construct: fused on or other part: human IgG Fc part, captured on the plate by goat anti human Fc antibody; a tag, no second protein
T1 sequence (P16581 22-175 limits assumed): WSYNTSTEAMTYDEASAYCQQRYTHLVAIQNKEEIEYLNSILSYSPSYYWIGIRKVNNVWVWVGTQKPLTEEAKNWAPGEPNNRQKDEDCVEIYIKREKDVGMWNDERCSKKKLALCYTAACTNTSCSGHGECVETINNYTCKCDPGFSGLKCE
Nature of the assay: Sialyl Lewis X Tyrosine Sulfate Assay (sLex TSA), E-selectin. It counts as binding. The following applies: sLexTSA. The procedure: (§1) Sialyl Lewis^X Tyrosine Sulfate Assay (sLe^x TSA):
(§2) Compounds of the present invention are assayed on a molecular level for their ability to inhibit the binding of P-, L-, or E-selectin chimeric molecules to sLe^x and tyrosinesulfate residues linked to a polymeric matrix as a PSGL-1 substitute. Selected IC50-values are determined.
(§3) Microtiter plates are coated overnight in carbonate buffer pH9.6 with goat anti human Fc mAB (10 μg/ml). After washing in assay buffer (25 mM 4-(2-hydroxyethyl)-1-piperazineethanesulfonic acid (HEPES), 150 mM NaCl, 1 mM CaCl2 pH7.4) and blocking (3% bovine serum albumin (BSA) in assay buffer) plates are incubated for 2 h at 37° C. with human P-Selectin-IgG-chimera (0.61 nM respectively 150 ng/mL) or human L-Selectin-IgG-chimera (0.61 nM respectively 89 ng/mL) or human E-Selectin-IgG-chimera (0.61 nM respectively 131 ng/mL). 5 μl of sLe^x-tyrosine sulfate polyacrylamide (1 mg/ml) carrying 15% sLe^x, 10% Tyrosine-sulfate and 5% biotin is complexed with 20 μl Streptavidin-Peroxidase solution (1 mg/ml) and 25 μl assay buffer without CaCl2. […] Bound sLe^x-Tyrosine sulfate ligand complex is determined by measuring optical density at 450 nm vs. 620 nm in a Fusion alpha-FP reader (sold from Packard Bioscience, Dreieich, Germany).

For assay [2], the target named is T2, human P-Selectin-IgG-chimera (Homo sapiens, UniProt P16109).
T2 sequence (P16109 42-771 limits assumed): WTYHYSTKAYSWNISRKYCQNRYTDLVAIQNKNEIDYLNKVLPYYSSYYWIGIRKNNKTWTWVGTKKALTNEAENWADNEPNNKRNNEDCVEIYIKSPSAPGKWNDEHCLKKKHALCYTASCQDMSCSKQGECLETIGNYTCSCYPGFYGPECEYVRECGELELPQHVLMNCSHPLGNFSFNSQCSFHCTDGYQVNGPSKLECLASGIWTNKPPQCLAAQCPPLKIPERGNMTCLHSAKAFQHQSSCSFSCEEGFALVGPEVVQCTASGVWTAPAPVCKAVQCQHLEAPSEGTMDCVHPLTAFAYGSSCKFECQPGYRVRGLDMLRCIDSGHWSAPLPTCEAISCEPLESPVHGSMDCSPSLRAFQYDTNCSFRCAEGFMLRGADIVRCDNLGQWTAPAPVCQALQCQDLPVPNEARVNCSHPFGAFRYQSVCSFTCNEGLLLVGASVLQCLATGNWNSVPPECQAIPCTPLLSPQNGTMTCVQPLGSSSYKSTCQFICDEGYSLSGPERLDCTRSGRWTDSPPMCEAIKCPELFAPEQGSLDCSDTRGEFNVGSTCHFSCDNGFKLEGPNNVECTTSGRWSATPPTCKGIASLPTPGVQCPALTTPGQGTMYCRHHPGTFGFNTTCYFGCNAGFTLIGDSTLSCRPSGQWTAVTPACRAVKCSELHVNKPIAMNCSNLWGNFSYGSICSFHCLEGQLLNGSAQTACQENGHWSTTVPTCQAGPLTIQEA
Nature of the assay: Sialyl Lewis X Tyrosine Sulfate Assay (sLex TSA), P-selectin. It counts as binding. To be noted: sLexTSA. The procedure: as §1, §2, §3

For `O=C(O)Cc1cccc(-c2cc(CCCCCCc3ccc(O[C@H]4O[C@H](CO)[C@@H](O)[C@H](O)[C@@H]4O)c(-c4cccc(CC(=O)O)c4)c3)ccc2O[C@H]2O[C@H](CO)[C@@H](O)[C@H](O)[C@@H]2O)c1` [Bimosiamose, bimosiamose, reference compound], the IC50 was greater than 500 µM in assay [1] and 95 µM in assay [2].
